The assay has as its system MB231Br (breast cancer metastasis to brain). Description: Drug screening of MB231Br tumor foci on OBSCs. The format is cell-based, human.

A word on the EC10: it is the concentration needed for an effect of 10%. A higher EC10 goes with weaker potency. As a reminder, the EC25 is the concentration at which the effect reaches the 25% level. A high value points to a need for much substance. Consider `CC(=O)Nc1cccc(-n2c(=O)n(C3CC3)c(=O)c3c(Nc4ccc(I)cc4F)n(C)c(=O)c(C)c32)c1` [Trametinib], for which the EC10 (dose required to kill 10% of the tumor) turned out to be 32.3 nM. This molecule came in with an EC25 (dose required to kill 25% of the tumor) of 80.6 nM.

Source of the values: publication PMC10313921, “A living ex vivo platform for functional, personalized brain cancer diagnosis” (Cell Reports Medicine, 2023).
